The target of this test is human NK2 receptor (Homo sapiens, UniProt P21452). Kind of test: Neurokinin A (NKA) Receptor-binding Assay (Test A). The note with it: read-out: IC50 versus ^3 H-NKA binding to MELM, human NK2 receptor expressed in Mouse Erythroleukemia (MEL) cells, initial use of this assay. From the text:
Neurokinin A (NKA) Receptor-binding Assay (Test A)
It will be appreciated that the implications of a Compound's activity in Test A or Test B is not limited to asthma, but rather, that the test provides evidence of general antagonism of NKA. […] In Test B, a pKB of 5 or greater was typically measured for a Compound of the invention. It should be noted that there may not always be a direct correlation between the activities of Compounds measured as Ki values in Test A and the values measured in other assays, such as the pKB measured in Test B.

Chains of the proteins cited; added tags and fusions are not shown.
UniProt P21452, whole entry: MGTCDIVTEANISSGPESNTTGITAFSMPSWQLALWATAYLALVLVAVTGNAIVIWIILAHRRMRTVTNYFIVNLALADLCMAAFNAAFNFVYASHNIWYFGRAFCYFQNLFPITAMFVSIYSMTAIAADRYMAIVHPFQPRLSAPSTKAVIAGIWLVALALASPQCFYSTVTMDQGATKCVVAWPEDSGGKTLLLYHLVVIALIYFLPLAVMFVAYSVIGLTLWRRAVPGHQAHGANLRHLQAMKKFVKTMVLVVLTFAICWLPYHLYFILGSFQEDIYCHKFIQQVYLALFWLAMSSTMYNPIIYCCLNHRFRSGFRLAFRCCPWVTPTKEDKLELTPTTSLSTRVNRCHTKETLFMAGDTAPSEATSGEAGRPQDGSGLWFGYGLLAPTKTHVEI

`CSCC[C@@H]1NC(=O)[C@H](CC(C)C)NC(=O)CNC(=O)[C@H](Cc2ccccc2)NC(=O)[C@H](Cc2c[nH]c3ccccc23)NC(=O)[C@H](CCC(N)=O)NC1=O`: the 50% inhibitory concentration (IC50) was 30 nM.

As a reminder, the IC50 is the point on the concentration scale where inhibition reaches its midpoint.

The values above are taken from patent publication US5534525A.
